Measured values as given in ChEMBL document CHEMBL1130193, “Synthesis, cardiotonic activity, and structure-activity relationships of 17 beta-guanylhydrazone derivatives of 5 beta-androstane-3 beta, 14 beta-diol acting on the Na+,K(+)-ATPase receptor” (J Med Chem, 1997).

Target: Sodium/potassium-transporting ATPase subunit alpha-1 (Canis lupus familiaris, UniProt P50997)
Experiment: Inhibition of Na+/K+ ATPase from dog kidney

C[C@]12CC[C@H](O)C[C@H]1CC[C@@H]1[C@@H]2CC[C@]2(C)[C@@H](/C=C/C=N/NC3=NCCN3)CC[C@]12O
IC50: 2.5 µM
